This note sets out measurements from US8653083B2, “Hedgehog pathway antagonists to treat disease” (The Johns Hopkins University, priority 2005, dated 2014).

For the test, the system named is 22RV1 xenografts. The experiment in a line: 22RV1 human prostate cancer xenografts in athymic mice, tumor growth. As to conditions: cyclopamine comparator, dose not given. It is filed as in vivo.

Turning to `CC1=C2C[C@H]3[C@@H](CC=C4C[C@@H](O)CC[C@@]43C)[C@@H]2CC[C@]12O[C@@H]1C[C@H](C)CN[C@H]1[C@H]2C` [Cyclopamine], the “tumor growth of established xenografts” value was “complete and durable regression”.
